These are literature values, as cited in paper PMC6381106 (Scientific Reports, 2019).

The test system of the series is MD2-TLR4. The note with it: literature; ref [62]–[65]; cited from earlier work. An excerpt:
Multiple anti-inflammatory immunomodulatory therapies have been developed to ameliorate proinflammation following bacterial infection. […] Therefore, novel therapeutic approaches that decrease inflammatory responses should be developed, and researchers should expand the focus beyond agents that only treat the initial infe ...

For the molecule `CCCCCC/C=C\CCCCCCCCCC(=O)N[C@H]1[C@H](OC[C@H]2O[C@H](OP(=O)(O)O)[C@H](NC(=O)CC(=O)CCCCCCCCCCC)[C@@H](OCCCCCCCCCC)[C@@H]2O)O[C@H](COC)[C@@H](OP(=O)(O)O)[C@@H]1OCC[C@@H](CCCCCCC)OC` [eritoran], the “outcome in clinical trials (MD2-TLR4 antagonist; in words)” value is on record as “unsuccessful in clinical trials”.
